Molecules are shown by their SMILES.

Amino acid sequences for entries named in this document (tags omitted). Residues count along the entry.
UniProt P47871, 26-477 limits assumed: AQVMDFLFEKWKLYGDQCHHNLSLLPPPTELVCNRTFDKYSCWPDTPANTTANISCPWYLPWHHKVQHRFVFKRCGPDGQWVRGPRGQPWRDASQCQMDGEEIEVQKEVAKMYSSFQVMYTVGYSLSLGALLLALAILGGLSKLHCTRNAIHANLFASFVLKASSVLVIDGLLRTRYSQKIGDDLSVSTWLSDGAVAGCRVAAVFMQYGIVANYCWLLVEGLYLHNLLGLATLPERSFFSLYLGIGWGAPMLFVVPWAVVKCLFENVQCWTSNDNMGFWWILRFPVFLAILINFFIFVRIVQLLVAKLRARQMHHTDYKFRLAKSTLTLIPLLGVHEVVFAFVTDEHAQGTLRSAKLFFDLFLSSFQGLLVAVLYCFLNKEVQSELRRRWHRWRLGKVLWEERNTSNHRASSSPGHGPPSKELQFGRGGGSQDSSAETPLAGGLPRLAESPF

This passage reports Ki results from patent US10000473B2, “Indazole derivatives useful as glucagon receptor antagonists” (Janssen Pharmaceutica NV, priority 2016, dated 2018).

This assay has as its target human GCGR (Homo sapiens, UniProt P47871). Kind of assay: Cellular functional assay, cAMP readout (glucagon-stimulated cAMP, LANCE TR-FRET). It counts as cell-based. Conditions: read-out: Inhibition of cAMP Ki; HEK293 cells stably expressing full-length human GCGR; glucagon 100 pM; IC50 converted to Ki.
As to `O=C(O)CCNC(=O)c1ccc(C(CCC2CCCCC2)n2ncc3cc(-c4ccc(C(F)(F)F)cc4)ccc32)cn1` (stereo not shown), the Ki was determined as 361 nM.

Take `COCCC(c1ccc(C(=O)NCCC(=O)O)cc1)n1ncc2cc(-c3ccc(C(F)(F)F)cc3)ccc21` (stereo not shown): the Ki came to 2400 nM.

For the compound `O=C(O)CCNC(=O)c1ccc(C(CCC2CCC2)n2cc3cc(-c4ccc(C(F)(F)F)cc4)ccc3n2)cc1` (stereo not shown) [Compound #215, 3-(4-(3-Cyclobutyl-1-(5-(4-(trifluoromethyl)phenyl)-2H-indazol-2-yl)propyl)benzamido)propanoic acid], the Ki stood at 100 nM.

As to `O=C(O)CCNC(=O)c1ccc(C(CCc2ccc(Cl)cc2)n2ncc3cc(-c4ccc(C(F)(F)F)cc4)ccc32)cc1` (stereo not shown), the Ki amounted to 484 nM.

A word on the Ki: it is a dissociation constant, usually derived from enzyme kinetics or from competition with a known ligand.
